Usually ED50 stands for the midpoint of the dose-response relation.

The source of these data is US8993575B2, “[1,3,4] oxadiazole derivative and application thereof” (Huazhong University of Science & Technology, priority 2011, dated 2015).

One data set can be described thus: in vivo. The settings on record: both, Kunming (KM), mouse, po.

In “in vivo”, `Cc1nc2n(c(=O)c1CCN1CCC(c3noc4cc(F)ccc34)CC1)CCCC2` [risperidone, reference compound] gave an ED50 of 0.3 mg/kg. For the same compound, the “EPS at effective dosage (in words)” value in the data set on KM mice (catalepsy) is given as “did not cause EPS”.
